## AlphaSeq binding of Ab-14 light chain variants to a spike HR2 peptide

All variants were tested on one target, the spike HR2 peptide PDVDLGDISGINAS (SARS-CoV-2).

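The starting antibody came from a phage panning campaign against this peptide. These sequences belong to a second round, designed from the earlier measurements on random variants of the parent. Several design methods are mixed in this list. The assay is AlphaSeq: two haploid yeast populations carry antibody and antigen on their surface. Pairs that bind mate more often; barcode pairs of the diploids are counted by sequencing. Each replicate has its own calibration line, from reference interactions of the BCL2 family. Mating was done six times.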

Parent scFv Ab-14: VH joined to VL by the linker GGGGSGGGGSGGGGS. Changes lie in the light chain CDRs alone.
VH: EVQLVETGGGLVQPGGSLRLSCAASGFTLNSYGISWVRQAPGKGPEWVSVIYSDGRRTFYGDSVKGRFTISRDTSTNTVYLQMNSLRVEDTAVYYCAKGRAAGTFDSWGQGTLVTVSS
VL: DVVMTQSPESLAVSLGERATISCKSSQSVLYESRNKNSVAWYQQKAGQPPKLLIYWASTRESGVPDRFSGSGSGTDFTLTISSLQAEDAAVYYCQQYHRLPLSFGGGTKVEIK

Variants are written as CDR1, CDR2 and CDR3 of the light chain (limits as in the source). Parent: KSSQSVLYESRNKNSVA, WASTRES, QQYHRLPLS. The read-out is the apparent dissociation constant on a log10 scale (nM): the lower, the stronger. Averages over replicates are reported, and they cover detected replicates only. "nd" means that the variant was in the library but no mating with the target was seen in any replicate; the authors take this as a sign of poor binding, and no number exists.

The variant KSSQSVLYESTNSNSVA / QASTRES / QQYHVLPLS showed 0.94 (6 of 6 replicates).
The variant KLSASQLYESRASNAVA / NASQRMD / QQYHRLPLS showed -0.18 (6 of 6 replicates).
The variant RLTEHTSMRAYADAAVA / DASTRND / QQYHRLPLE showed 0.25 (6 of 6 replicates).
The variant KLSEMAHFESRKKNSVA / ENSTRES / QQYDHLPLS showed 1.44 (6 of 6 replicates).
The variant KLEQSWWGEWRNKNSVA / HASTREQ / QDYHRLPLS showed 0.16 (6 of 6 replicates).
The variant KSSQSVLYDLFNKNSVA / WASTRMS / QQYHRLPLS showed 1.38 (4 of 6 replicates).
The variant KLDMFIPSQWEWDASIA / GTTLRNT / QDYARLPLS showed 1.64 (5 of 6 replicates).
The variant KLSQQWLYESRNKNSVA / NASQRES / QQYHRLPLS showed 0.05 (6 of 6 replicates).
The variant KCSQSVLYESRNKNSVA / EASTRES / QQYHRLPLS showed -0.10 (6 of 6 replicates).
The variant KSSQSVLYESVNKNSVA / WASTRRS / QQYHRLPLS showed 1.92 (2 of 6 replicates).
The variant KLSQSTLYESRNKNSVA / WASTREY / QQYNRLPLS showed 0.93 (6 of 6 replicates).
The variant KVSQSELYESRNKNSVA / NASTRES / QDYHRLPLS showed -0.11 (6 of 6 replicates).
The variant KLSQSVLYESRNKNSVA / EASTRES / QQYHRLPLM showed -0.11 (6 of 6 replicates).
The variant KLSQSVLYESRNFNNVA / NASTRES / QQYHRLPLS showed -0.34 (6 of 6 replicates).
The variant SLAMLLDQVYAYGSNIA / NAQELVV / QQYYRLPLT showed 1.57 (1 of 6 replicates).
The variant HLSPSVLYESRNGNSVA / NASTRES / QQYHRLPLS showed -0.10 (6 of 6 replicates).
The variant KSLQSVLYESRNKNNVA / AASTRED / QQYARLPLS showed 0.04 (6 of 6 replicates).
The variant KSSFSVLYESRNKNSVA / KASTRES / QTYHRLPLS showed 2.01 (2 of 6 replicates).
The variant MVTQMAMTGMKNKRSVA / NATMREY / QQYHRLPLI showed 1.84 (6 of 6 replicates).
The variant IVSQLMLWGYHAKNSIA / EAEQRLN / QQYERLPLF showed 2.28 (2 of 6 replicates).
The variant KLRTSVMLESRNKNSVA / SASTRES / QQYHRLPLS showed 0.06 (6 of 6 replicates).
The variant KYSQSWGYESRNKNSVA / GASTRES / QQYHRLPLS showed 0.06 (6 of 6 replicates).
The variant KSSQNVLYEERNKNSVA / WASTRES / DQYHRLPLS showed nd (0 of 6 replicates).
The variant KLMQSVLYESRNKNSVA / EASTRMS / QQYHRLPLS showed 0.91 (6 of 6 replicates).
The variant KLQNFSQEINGIWNSIA / DETMKHT / QHYDRLPLV showed 1.63 (2 of 6 replicates).
The variant KLSPSDLYESRNKNSVA / EASTRES / QQYHRLPLS showed -0.20 (6 of 6 replicates).
The variant KSSQSVLLESVNKNSVA / WASTRES / QQYHRAPLS showed 2.16 (3 of 6 replicates).
The variant KLSQSTLYESRNKNSVA / DASTRES / QQYHRLPLS showed -0.62 (6 of 6 replicates).
The variant KMRQSVLQEFRNKNSVA / DASTRES / QQYHRLPLS showed 0.18 (6 of 6 replicates).
The variant KLSQSELYESRNKNSVA / SASTRCE / QQYHRLPLS showed -0.31 (6 of 6 replicates).
The variant KLSQSVLYEWRNKNSVA / DASTRES / QQYHRLPLS showed -0.28 (6 of 6 replicates).
The variant KSSQSMLEESRYKYSVA / NASTRES / QQYHRLPLS showed 0.73 (6 of 6 replicates).
The variant KLSQSELYESRMKNSVA / EASQRES / QQYHRLPLS showed 0.21 (6 of 6 replicates).
The variant TISQLHNMGTFAINSVA / QASIRNE / QQYDRLPLQ showed 1.10 (6 of 6 replicates).
The variant KLSQSVEVLSRNKNSVA / NASTREA / QQYHRLPLS showed -0.31 (6 of 6 replicates).
The variant KSSQSVLYESQNKNSVA / QVSIRES / QCYHRLPLS showed 1.99 (5 of 6 replicates).
The variant KLRNDFMENKQNQSNIA / AGHESIK / QQYSMLPLS showed 1.20 (6 of 6 replicates).

Of ten entries with the parent sequence, four were seen in most replicates (averages 0.34 to 2.37), three in one and three in none, so single entries are noisy. A sequence measured in both rounds can read differently, since the two assays cover different ranges. The authors averaged sequences with at least three values out of six and counted those with two or fewer as poor binders. Empty control strains, which show no peptide, gave a signal in 4% of pairings with all light chain designs; the median was 2.64 and 95% of these signals were weaker than 1.59. No background was subtracted.

Reference: Li et al. 2023, doi:10.1038/s41467-023-39022-2. File: FLAb, binding data.